# AlphaSeq binding of Ab-14 light chain variants to a spike HR2 peptide

Binding partner: SARS-CoV-2 spike HR2 peptide, sequence PDVDLGDISGINAS.

Parent: Ab-14, a human scFv built as VH, three GGGGS repeats, VL. Only the CDRs of the light chain vary.
VH: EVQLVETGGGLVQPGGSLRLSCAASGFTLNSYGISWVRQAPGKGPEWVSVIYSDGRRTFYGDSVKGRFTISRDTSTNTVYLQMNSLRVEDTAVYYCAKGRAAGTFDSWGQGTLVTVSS
VL: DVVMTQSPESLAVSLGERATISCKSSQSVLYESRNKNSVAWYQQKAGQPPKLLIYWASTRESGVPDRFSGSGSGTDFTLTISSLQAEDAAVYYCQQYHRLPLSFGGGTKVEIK

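The parent was found by panning a naive human phage display library on the peptide. The variants were designed computationally from a first round of random CDR variants and then made and measured. Several design methods are mixed in this list. The assay is AlphaSeq: two haploid yeast populations carry antibody and antigen on their surface. After mating in shaken culture at 30 °C for 16 h, diploids were selected and their barcode pairs sequenced. A regression on co-assayed BCL2-family reference pairs converts the normalised counts of each replicate to an apparent Kd. There are six technical replicates.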

Variants are written as CDR1, CDR2 and CDR3 of the light chain (limits as in the source). Parent: KSSQSVLYESRNKNSVA, WASTRES, QQYHRLPLS.
The Kd shown is the geometric mean over detected replicates; a lower Kd is a better binder.
"not detected" means that the variant was in the library but no mating with the target was seen in any replicate; the authors take this as a sign of poor binding, and no number exists.
In the paper, a design with two or fewer of six values counts as a poor binder.

CDR-L1 | CDR-L2 | CDR-L3 | apparent Kd | detected
MIEIIPNGYMEMRSNVA | DGSLVRM | QQYARLPLM | not detected | 0/6
KFSQQVLYEDRQANSVA | NASQRMS | QQYHRLPLS | 5.3 nM | 6/6
KSSQSVLYESRNCNSVA | SASTRIS | QQYHRLPLS | 18 nM | 6/6
KQSPQDLQQSRNKNQVA | DASTRES | QQYHRLPLS | 1.1 nM | 6/6
KMSQSTLYESRNKSSVA | WASTRES | QQYHRLPLS | 68 nM | 6/6
KISMMINMTFEESNNVA | EMVTREK | QQYNRLPLS | not detected | 0/6
MLNQHDEGFKGVKDAIA | NAELREG | QQYGRLPLS | 3.9 nM | 6/6
KFSQSVLYESRNKNSVA | MASHREH | QQYHRLPLS | 6.6 nM | 6/6
TIMQMTSSFSQNINNVA | EVSTREK | QQYDRLPLA | 2.6 nM | 6/6
KSSQSDLYESRNKNSIA | AASKRES | QQYHRLPLS | 2.1 nM | 6/6
KLSQSDLYGSRNKNSVA | EASTRES | QQYHRLPLS | 730 pM | 6/6
SVSHSVLYESRNKNSVA | WASTRES | QQYHRLPLS | 69 nM | 3/6
RLTEHESESKAADASVA | DANTRGD | QQYHRLPLF | 7.7 nM | 6/6
KSSISYLGEKRNKNSVA | DASTRES | QQYHRLPLS | 1.0 nM | 6/6
KLSQSELYESRNKNNVA | NASQRES | QQYHRLPLS | 530 pM | 6/6
KFSQSVLYESRTSNAVA | NASTRES | QQYHRLPLS | 2.0 nM | 6/6
SVTRYTDENGLKMSSVA | GAAERMT | QQYHRLPLT | 1.2 nM | 6/6
KVSQSVPYESRMKNSVA | DASTRCS | QQYHRLPLE | 720 pM | 6/6
HIGGVLEGNNVKGRSVA | HMNTRED | QQYDRLPLS | 1.8 nM | 6/6
HMTIDTEMEAKHQNSVA | EASHTEY | QQYSELPLT | not detected | 0/6
KSMQSVLYESRDKNSVA | KASTRES | QQYHRLPLS | 3.8 nM | 6/6
HITYGMYVAGRHSSSIA | QAETRAK | QQYDRLPLA | 33 nM | 5/6
KIIQEGLYESRNKNSVA | SASTRCP | QQYHRLPLS | 740 pM | 6/6
HIQDDAGGAKEQFDSVA | STEERSY | QQYSRLPLS | 9.6 nM | 6/6
KVSPSWWYESRNKASVA | HASTRES | QQYHRLPLS | 1.6 nM | 6/6
KLYQATAMTSSVRNNVA | DLNERER | QQYFRLPLS | 2.2 nM | 6/6
KCSQSVLDEYDNKNSVA | WASTRTS | QQYHRLPLS | 10 nM | 6/6
KLQNFSQEDNKMWNNIA | DMTMVHT | QQYMRLPLE | 7.2 nM | 6/6
KISQAVLYESRNKMQVA | WASTRES | QQYIRLPLS | 11 nM | 3/6
KSSQSVLYESMNKNSVA | QASTRES | QQYHRLPLS | 9.9 nM | 6/6
QLSVFELQGTGWAQSIA | QADHRTE | QQFARLPLV | 11 nM | 6/6
KLSEISHFESKKKNSVA | ENSTREE | QQYDHLPLS | 100 nM | 5/6
KSSQSWWPESRNKNSVA | WGSTRES | QQYHRLPLS | 5.5 nM | 6/6
KSSQSVLYESSNKVSVA | WASTRES | QQYHRLPLS | 390 nM | 1/6
HITYGMQVKGRHMESIA | QAEERAK | QQYDRLPLA | 11 nM | 6/6
KIGATLNMMAHKKNNVA | DLVTREN | QQYHRLPLS | 9.4 nM | 6/6
KVSQGMWYESRMKNSVA | NASQRES | QQYHRLPLQ | 510 pM | 6/6
KMMQSQLYEDRNSNAVA | NASQRES | QQYHRLPLS | 790 pM | 6/6
NMTLQVFNGSRNKYNIA | AEVKRVY | QQYQRLPLM | 1.9 µM | 4/6
KSSQSVLMESRNKNSVA | WASVRES | QQYHRLPLS | 34 nM | 6/6
KWSWSVLFESRNKNSVA | DASTRSS | QQYHRLPLS | 1.3 nM | 6/6
NLSWKSIGFENEWMAIA | NTSERNA | QQYARLPLS | 13 nM | 6/6
KMTTNLEHQADRKNSIA | EADMVAA | QDYMRLPLI | 75 nM | 4/6
MIYGAHMELGRAANSIA | DNVTRYN | QQYERLPLS | 110 nM | 6/6
KSSQGVLYESANKNSVA | WASTRES | QQYHRLPLS | 6.0 nM | 6/6
KLVNSTLYESRQKNSVA | NASTRES | QQYHRLPLS | 760 pM | 5/6
KQSQSTLYESGMKNSVA | NASKRMD | QQYHRLPLS | 1.2 nM | 6/6
KASQSFLYESRWKNSVA | GASQRES | QQYHRLPLS | 4.5 nM | 6/6
KSSQSVLYESGNKNSVA | WASTRES | QQYHRLPLS | 84 nM | 6/6
KIGMTLNQLMHKKNNVA | DLVTREM | QQYARLPLS | 4.1 nM | 6/6
KQSQSVEQESSNKNSVA | NASTREQ | QQYHRLPLS | 1.6 nM | 6/6
KFSQSVLYESRTYNSVA | NASTRES | QQYHRLPLS | 2.1 nM | 6/6
KSSQSVLYECRNKNSVA | WASTREN | QQYHRLPLS | 1.4 nM | 6/6
KLSMLTRFQQNAKNNIA | EMNRREE | QQYHRLPLS | 1.1 nM | 6/6
KVQQSVLYESRNKNSVA | EASTRCS | QQYHRLPLS | 880 pM | 6/6
KSSQSVLYESRNKNSVA | GASTREL | QQYHRLPLS | 1.8 nM | 6/6
KLQQSYLYESRNKNSVA | NASYRES | QQYHRLPLS | 660 pM | 6/6
KLQQSELYESRNKNSVA | QASTRLS | QQYHRLPLS | 5.7 nM | 6/6
NMRGGEGEIAQHGYSVA | GVDLRAA | QQYARLPLH | 29 nM | 6/6
KSGQGDLYESRNKNSVA | GASQRES | QQYHRLPLS | 1.2 nM | 6/6
KSGQSVLMESRNKNSVA | TASTRED | QQYHRLPLS | 72 nM | 6/6
MVSQVMLWGLHAKNSIA | EAQMRLN | QQYDRLPLF | 18 nM | 1/6
KSEQSVSYESRNKNSVA | WASTRES | QQYHRLPLS | 43 nM | 6/6
KISQMVRVGSTVKNSIA | EEQTRAK | QQYHRLPLA | 45 nM | 4/6
KSSQSKPIESHNKNSVA | WASTREH | QAYHRLPLS | not detected | 0/6
QVQYHPGESLRHASSIA | DVNIKVM | QQYSRLPLA | 830 pM | 6/6
MVTMNLRYGDAWQNPIA | EASHLET | QQYAHLPLG | 15 nM | 1/6
KLSQSVLYESRNKNSVA | DASTRES | YQYHRLPLS | 5.5 nM | 6/6
KSSQSYYYTSENKNSVA | WASTRES | QQYHRLPLS | 42 nM | 6/6

The last 6 entries again:

| CDR-L1 | CDR-L2 | CDR-L3 | apparent Kd | detected |
|---|---|---|---|---|
| KISQMVRVGSTVKNSIA | EEQTRAK | QQYHRLPLA | 45 nM | 4/6 |
| KSSQSKPIESHNKNSVA | WASTREH | QAYHRLPLS | not detected | 0/6 |
| QVQYHPGESLRHASSIA | DVNIKVM | QQYSRLPLA | 830 pM | 6/6 |
| MVTMNLRYGDAWQNPIA | EASHLET | QQYAHLPLG | 15 nM | 1/6 |
| KLSQSVLYESRNKNSVA | DASTRES | YQYHRLPLS | 5.5 nM | 6/6 |
| KSSQSYYYTSENKNSVA | WASTRES | QQYHRLPLS | 42 nM | 6/6 |

Values of this round are not directly comparable with the first-round values of the same sequences.
As a blank, each scFv also met three strains without target: over all light chain designs, 4% of these pairings were detected, typically at 430 nM and seldom below 38 nM.
Of ten entries with the parent sequence, four were seen in most replicates (averages 2.2 nM to 240 nM), three in one and three in none, so single entries are noisy.

Reference: Li et al. 2023, doi:10.1038/s41467-023-39022-2. File: FLAb, binding data.